Article PMC9061749, “Activation and allosteric regulation of the orphan GPR88-Gi1 signaling complex” (Nature Communications, 2022)

Molecular target: T1, wild-type human GPR88 with BRIL fused to the N-terminus (N-BRIL fusion construct) (human, UniProt Q9GZN0 1-384)
T1 construct: GPR88, human; BRIL was fused to the N-terminus to raise expression; also called BRIL-GPR88; GPCR88; not shown: Flag, N-terminal, kept; BRIL, N-terminal, kept
T1 sequence (looked up): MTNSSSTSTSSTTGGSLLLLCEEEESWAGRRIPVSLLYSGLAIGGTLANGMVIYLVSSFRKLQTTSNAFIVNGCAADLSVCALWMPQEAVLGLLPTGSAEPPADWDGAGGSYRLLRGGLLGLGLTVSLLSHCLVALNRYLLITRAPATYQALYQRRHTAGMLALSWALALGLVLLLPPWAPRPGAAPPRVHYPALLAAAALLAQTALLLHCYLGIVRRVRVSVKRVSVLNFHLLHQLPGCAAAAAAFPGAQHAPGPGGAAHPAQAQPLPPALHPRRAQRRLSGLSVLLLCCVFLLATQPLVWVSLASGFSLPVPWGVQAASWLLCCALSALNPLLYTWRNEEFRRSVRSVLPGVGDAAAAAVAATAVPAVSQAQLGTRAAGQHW
Assay: cryo-EM structure; GPR88-Gi1-scFv16 complex with 2-PCCA (100 µM at assembly, 10 µM in later buffers); purified GPR88 and Gi1 mixed on ice, apyrase added, complex held on anti-FLAG M1 resin, scFv16 added, SEC; 20 mM HEPES pH 7.5, 100 mM NaCl, LMNG/GDN/CHS
Details: both partners purified

binding result: binds
B1: human Gαi1 (Gα subunit of the Gi1 heterotrimer) (natural protein)
chain: MGCTLSAEDKAAVERSKMIDRNLREDGEKAAREVKLLLLGAGESGKSTIVKQMKIIHEAGYSEEECKQYKAVVYSNTIQSIIAIIRAMGRLKIDFGDSARADDARQLFVLAGAAEEGFMTAELAGVIKRLWKDSGVQACFNRSREYQLNDSAAYYLNDLDRIAQPNYIPTQQDVLRTRVKTTGIVETHFTFKDLHFKMFDVGGQRSERKKWIHCFEGVTAIIFCVALSDYDLVLAEDEEMNRMHESMKLFDSICNNKWFTDTSIILFLNKKDLFEEKIKKSPLTICYPEYAGSNTYEEAAAYIQCQFEDLNKRKDTKEIYTHFTCATDTKNVQFVFDAVTDVIIKNNLKDCGLF
notes: Gαi1, human, cloned into pFastbac1; no tag is named; The same chain as in m2; it was never tested alone, only within the heterotrimer in the structures; source: Trichoplusia ni Hi5 insect cells, co-expressed with Gβ1γ2, purified as the heterotrimer (Ni-NTA)
